Data published in patent publication US20080269114A1, “Y4 Selective Receptor Agonists For Thereapeutic Interventions” (priority 2004, published 2008).

Tests used:
[1] = biological target: human Y4 receptor (human), P50391; assay: competition binding, displacement of 125I-PP, COS-7 cells with human Y4
[2] = biological target: human Y4 receptor (human), P50391; assay: cell-based or functional assay

Question: For ACLEPVYPGDNATPEQMAQYAADLRRCINMLTRPRY (modifications not checked) [[Cys2,D-Cys27]PP], which IC50 [1] is on record?
Answer: 8.2 nM

Question: What about the EC50, inositol phosphate turnover [2] of the same binder?
Answer: 4.6 nM
